{"sequences": {"note": "Sequences of proteins named here, by UniProt entry; tags and fusion partners are left off.", "UniProt P31652, whole entry": "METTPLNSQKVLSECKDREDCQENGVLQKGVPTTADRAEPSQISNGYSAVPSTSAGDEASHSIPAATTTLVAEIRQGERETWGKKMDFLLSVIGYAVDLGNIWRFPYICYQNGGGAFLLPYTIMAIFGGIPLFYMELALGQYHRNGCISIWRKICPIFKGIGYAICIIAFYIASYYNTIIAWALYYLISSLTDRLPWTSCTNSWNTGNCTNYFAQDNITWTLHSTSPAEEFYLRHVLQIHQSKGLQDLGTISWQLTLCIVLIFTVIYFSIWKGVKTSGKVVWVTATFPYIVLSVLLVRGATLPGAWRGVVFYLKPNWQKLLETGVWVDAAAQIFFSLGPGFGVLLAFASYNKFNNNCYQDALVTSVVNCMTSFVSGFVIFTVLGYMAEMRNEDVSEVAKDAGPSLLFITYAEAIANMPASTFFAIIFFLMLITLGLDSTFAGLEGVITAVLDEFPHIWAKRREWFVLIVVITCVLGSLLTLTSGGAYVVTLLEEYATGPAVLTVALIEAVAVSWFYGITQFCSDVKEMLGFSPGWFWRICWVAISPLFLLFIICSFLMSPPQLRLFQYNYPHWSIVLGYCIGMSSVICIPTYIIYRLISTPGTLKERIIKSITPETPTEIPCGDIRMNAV", "UniProt Q63380, entry or part of it": "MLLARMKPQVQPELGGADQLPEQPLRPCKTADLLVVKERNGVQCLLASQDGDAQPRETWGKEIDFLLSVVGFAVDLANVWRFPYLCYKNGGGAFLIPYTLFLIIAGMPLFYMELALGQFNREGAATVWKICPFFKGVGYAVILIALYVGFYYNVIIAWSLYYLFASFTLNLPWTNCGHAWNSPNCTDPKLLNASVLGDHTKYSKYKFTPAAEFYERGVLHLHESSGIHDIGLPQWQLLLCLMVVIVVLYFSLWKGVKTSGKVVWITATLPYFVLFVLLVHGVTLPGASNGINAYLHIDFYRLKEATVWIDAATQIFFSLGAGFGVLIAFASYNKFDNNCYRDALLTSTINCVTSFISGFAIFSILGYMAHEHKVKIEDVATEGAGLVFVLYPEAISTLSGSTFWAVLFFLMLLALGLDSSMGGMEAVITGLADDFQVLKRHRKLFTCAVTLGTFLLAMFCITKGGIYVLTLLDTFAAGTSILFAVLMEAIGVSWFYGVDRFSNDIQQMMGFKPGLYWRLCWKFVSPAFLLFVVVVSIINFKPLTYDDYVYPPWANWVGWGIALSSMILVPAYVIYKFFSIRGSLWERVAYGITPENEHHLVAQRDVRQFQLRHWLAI", "UniProt P23977, whole entry": "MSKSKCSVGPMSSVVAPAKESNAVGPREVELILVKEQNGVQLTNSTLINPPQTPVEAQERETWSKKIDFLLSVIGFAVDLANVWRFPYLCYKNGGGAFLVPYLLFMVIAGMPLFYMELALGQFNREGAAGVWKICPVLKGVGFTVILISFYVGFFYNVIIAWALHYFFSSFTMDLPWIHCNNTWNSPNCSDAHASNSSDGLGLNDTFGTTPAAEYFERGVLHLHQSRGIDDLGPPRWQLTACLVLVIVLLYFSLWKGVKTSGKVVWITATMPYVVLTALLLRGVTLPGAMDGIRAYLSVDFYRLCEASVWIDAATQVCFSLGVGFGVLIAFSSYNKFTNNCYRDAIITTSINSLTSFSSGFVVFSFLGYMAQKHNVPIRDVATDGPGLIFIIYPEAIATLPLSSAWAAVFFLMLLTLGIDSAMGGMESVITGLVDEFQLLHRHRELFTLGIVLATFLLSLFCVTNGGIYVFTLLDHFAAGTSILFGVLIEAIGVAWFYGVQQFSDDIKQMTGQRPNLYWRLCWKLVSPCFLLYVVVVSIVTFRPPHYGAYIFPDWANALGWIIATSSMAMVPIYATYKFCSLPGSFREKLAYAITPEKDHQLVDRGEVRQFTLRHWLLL"}, "source": "patent US7250425B2", "about": "“8-aza-bicyclo[3.2.1]octane derivatives and their use as monoamine neurotransmitter re-uptake inhibitors” (priority 2003, dated 2007)", "format_in_all_cases": "biochemical", "key": {"[1]": {"biological_target": "T1, reuptake of serotonin (5-HT) in synaptosomes (Rattus norvegicus, UniProt P31652)", "T1 construct": "in synaptosomes as described in WO 97/16451; from tissue", "experiment": "In vitro inhibition of serotonin reuptake in synaptosomes", "conditions": "3H-5-HT, read-out: 5-HT-uptake IC50", "method": "(§1) A number of compounds were tested for their ability to Inhibit the reuptake of the monoamine neurotransmitters dopamine (DA) noradrenaline(NA) and serotonin (5-HT) in synaptosomes as described in WO 97/16451.\n(§2) The test values are given as IC50 (the concentration (μM) of the test substance which inhibits the specific binding of ^3H-DA, ^3H-NA, or 3H-5-HT by 50%)."}, "[2]": {"biological_target": "reuptake of noradrenaline (NA) in synaptosomes (Rattus norvegicus, UniProt Q63380)", "experiment": "In vitro inhibition of noradrenaline reuptake in synaptosomes", "conditions": "3H-NA, read-out: NA-uptake IC50", "method": "as §1, §2"}, "[3]": {"biological_target": "T2, reuptake of dopamine (DA) in synaptosomes (Rattus norvegicus, UniProt P23977)", "T2 construct": "in synaptosomes as described in WO 97/16451; from tissue", "experiment": "In vitro inhibition of dopamine reuptake in synaptosomes", "conditions": "3H-DA, read-out: DA-uptake IC50", "method": "as §1, §2"}}}
{"substance": "(2R,3S)-2-(1-Naphthaleneoxymethyl)-8-methyl-3-(3-chlorophenyl)-8-aza-bicyclo[3.2.1]octane fumaric acid salt [2nd compound of method D]", "values": [{"measurement": "IC50", "setting": "[1]", "value": 6.3, "unit": "nM"}, {"measurement": "IC50", "setting": "[2]", "value": 150, "unit": "nM"}, {"measurement": "IC50", "setting": "[3]", "value": 65, "unit": "nM"}]}
